# Binding of CDR-mutated scFvs to a peptide of the spike HR2 region

Reference: Engelhart et al. 2022, doi:10.1038/s41597-022-01779-4. File: FLAb, binding data.

The target is the same throughout: PDVDLGDISGINAS, from the HR2 region of SARS-CoV-2 spike.

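The starting antibody came from a phage panning campaign against this peptide. The library (AAYL49) carries one to three amino acid substitutions per variant, with no insertions or deletions. Affinity was read by AlphaSeq, a pooled yeast mating assay with surface-displayed partners. Binding brings cells together so that they mate, and sequencing counts the barcode pairs among the diploids. Each replicate has its own calibration line, from reference interactions of the BCL2 family. Mating was done three times.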

Ab-14 is the parent antibody, in scFv form: VH, then a 15-residue (Gly4Ser)3 linker, then VL. The light chain is unchanged in all variants.
VH: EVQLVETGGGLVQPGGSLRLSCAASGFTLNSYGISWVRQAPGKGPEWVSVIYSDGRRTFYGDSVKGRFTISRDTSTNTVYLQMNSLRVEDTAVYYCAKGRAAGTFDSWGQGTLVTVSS
VL: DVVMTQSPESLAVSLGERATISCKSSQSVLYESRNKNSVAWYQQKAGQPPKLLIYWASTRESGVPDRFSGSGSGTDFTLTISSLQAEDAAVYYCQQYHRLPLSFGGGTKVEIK

Changes read parent residue, position, new residue, counted from the first residue of the VH shown.
All variants listed here change Y32 of the VH, counted from its first residue.
Values are log10 of the apparent Kd in nM; lower means stronger binding.
The mean shown is taken over the replicates in which the pair was detected.
Where no diploid with the target was found in that replicate, the entry reads "nd": below detection, most likely a poor binder, though not proof of it.
Order: sorted from the lowest average up, undetected variants last.
In this assay the parent's reference entry averaged 0.65; its copy inside this library read 4.11 (one replicate of three).
Three control strains display no target. For library AAYL49, 15% of the pairings with them gave a signal, with a median of 4.06 and one signal in twenty below 2.83, so weak values seen in few replicates may be background.

Variant Y32C+F59S+G61M gave 1.07, 1.13, 1.43 (mean 1.21).
Variant Y32H+F59A+T104N gave 1.21, 1.24, 1.79 (mean 1.41).
Variant Y32A+S63G+A101E gave 1.15, 1.17, 1.95 (mean 1.42).
Variant N30E+Y32V gave 1.25, 1.41, 1.68 (mean 1.45).
Variant Y32P+G33K+G61A gave 2.12, 1.98, 2.36 (mean 2.16).
Variant Y32D+V50S+F105Q gave nd, nd, 2.44.
Variant Y32Q+K65E gave 2.65, 2.35, 2.58 (mean 2.52).
Variant Y32V+R56K+K65E gave 2.13, 2.32, 3.33 (mean 2.59).
Variant S31Q+Y32L+Y52H gave nd, 3.27, 2.70 (mean 2.99).
Variant Y32N+K65P+D106S gave 3.36, nd, nd.
Variant N30G+Y32W+S107C gave 3.46, 3.41, 3.24 (mean 3.37).
Variant Y32W+Y52A+D62C gave 3.77, nd, nd.
Variant Y32Q+I34S+D54R gave nd, 3.86, nd.
Variant Y32W+D54H+F59M gave 3.41, 3.51, 4.68 (mean 3.87).
Variant Y32T+G55E gave nd, 3.96, nd.
Variant G26Q+Y32T+K65Q gave 4.13, nd, nd.
Variant Y32V+R57H+F59L gave 4.01, 3.83, 4.63 (mean 4.16).
Variant N30V+Y32D+D54M gave nd, 3.20, 5.25 (mean 4.23).
Variant F27L+Y32G+S63L gave 5.70, 3.50, 3.84 (mean 4.35).
Variant Y32N+I34K+S63A gave nd, 4.52, nd.
Variant Y32V+G61I gave 5.26, 4.51, 4.33 (mean 4.70).
Variant L29G+Y32A+G33Q gave nd, nd, 4.89.
Variant Y32Q+Y52D+S63E gave nd, 5.11, nd.
Variant Y32G+I51T+T58K gave 5.58, nd, nd.
Variant Y32T+S63Y gave 5.84, nd, 5.56 (mean 5.70).
Variant Y32Q+I34M+Y60S gave 5.89, nd, nd.
Variant Y32M+Y52C+S53K gave nd, nd, nd.
Variant L29V+Y32F+Y52C gave nd, nd, nd.
Variant G26L+Y32T+F59N gave nd, nd, nd.
Variant Y32D+S35D+F59M gave nd, nd, nd.
Variant F27C+Y32E+S63D gave nd, nd, nd.
Variant G26V+Y32K+S63Y gave nd, nd, nd.
Variant Y32M+T104L+D106K gave nd, nd, nd.
Variant Y32F+F59E+A101C gave nd, nd, nd.
Variant L29G+Y32V+D62N gave nd, nd, nd.
Variant T28I+N30L+Y32S gave nd, nd, nd.
Variant Y32H+I34N+D106P gave nd, nd, nd.
Variant Y32E+I34H+A101P gave nd, nd, nd.
Variant Y32C+F105H+D106L gave nd, nd, nd.
Variant T28V+Y32W+I34Y gave nd, nd, nd.
Variant Y32M+G33E+T58K gave nd, nd, nd.
Variant Y32A+S35H+R57M gave nd, nd, nd.
Variant Y32R+S63H+V64I gave nd, nd, nd.
Variant Y32A+S53K+K65A gave nd, nd, nd.
Variant G26W+Y32V+D62C gave nd, nd, nd.
Variant Y32F+T104G+F105M gave nd, nd, nd.
Variant Y32P+G61P+F105P gave nd, nd, nd.

2 of these entries, quoted again:

With N30E+Y32V the result was 1.25, 1.41, 1.68 (mean 1.45).
With Y32P+G61P+F105P the result was nd, nd, nd.